Data on 4 compounds can be found in patent US20070219767A1, “ATOMIC COORDINATES OF ALBUMIN DRUG COMPLEXES AND METHOD OF USE OF PHARMACEUTICAL DEVELOPMENT” (priority 2003, published 2007).

Protein sequences, listed by entry. Tags and fused reporters are not part of them. Residues count along the entry.
UniProt P02768, 25-609: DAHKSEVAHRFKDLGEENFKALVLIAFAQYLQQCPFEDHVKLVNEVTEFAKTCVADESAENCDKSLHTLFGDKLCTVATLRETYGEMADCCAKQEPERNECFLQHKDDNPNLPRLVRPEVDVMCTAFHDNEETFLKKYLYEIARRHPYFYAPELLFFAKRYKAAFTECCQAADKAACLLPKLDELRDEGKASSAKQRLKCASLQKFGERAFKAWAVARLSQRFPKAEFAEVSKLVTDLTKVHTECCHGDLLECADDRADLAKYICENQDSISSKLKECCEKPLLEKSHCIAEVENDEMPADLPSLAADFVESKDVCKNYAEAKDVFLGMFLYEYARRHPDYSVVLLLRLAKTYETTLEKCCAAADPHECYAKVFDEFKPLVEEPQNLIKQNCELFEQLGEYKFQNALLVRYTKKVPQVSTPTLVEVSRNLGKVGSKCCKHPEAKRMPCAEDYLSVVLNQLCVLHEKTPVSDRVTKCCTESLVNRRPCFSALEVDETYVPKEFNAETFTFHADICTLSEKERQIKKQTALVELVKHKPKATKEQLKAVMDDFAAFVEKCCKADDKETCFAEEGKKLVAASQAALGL

The target of the experiment is human serum albumin (Homo sapiens, UniProt P02768). Put plainly: X-ray crystallography of human serum albumin/drug complexes: binding location. The note with it: for Binding site of the Drug-Albumin Complex (site heading the list of contacting residues): Table II, Phase II, refined coordinates, listed residues within 5 Å of bound ligand.

Consider `CCOC(=O)[C@H](CCc1ccccc1)N[C@@H](C)C(=O)N1[C@H](C(=O)O)C[C@@H]2CCC[C@@H]21` [Ramipril], for which the “Binding site of the Drug-Albumin Complex (site heading the list of contacting residues)” value (“Binding site of the Drug-Albumin Complex” below) is “Site IB, L115, V116, R117, P118, M123, Y138, L139, E141, I142,”.
Turning to Celocoxib, the “Albumin Binding Location” value (Table I, Phase I, subdomain of HSA where the drug is found in the crystal complex) is “IIA”.
As to `COc1cc2nc(N3CCN(C(=O)c4ccco4)CC3)nc(N)c2cc1OC` [Prazosin], the “Binding site of the Drug-Albumin Complex” value was “Site IB, L115, V116, R117, P118, M123, F134, K137, Y138, I142,”.
On to `COc1cc2nc(N3CCN(C(=O)C4CCCO4)CC3)nc(N)c2cc1OC` (stereo not shown) [Terazosin], for which the “Binding site of the Drug-Albumin Complex” value is “Site IB, L115, V116, R117, P118, M123, A126, F134, K137, Y138,”.
